Each structure is given as a SMILES string.

Protein sequences, listed by entry. Tags and fused reporters are not part of them.
UniProt Q932Y6, whole entry: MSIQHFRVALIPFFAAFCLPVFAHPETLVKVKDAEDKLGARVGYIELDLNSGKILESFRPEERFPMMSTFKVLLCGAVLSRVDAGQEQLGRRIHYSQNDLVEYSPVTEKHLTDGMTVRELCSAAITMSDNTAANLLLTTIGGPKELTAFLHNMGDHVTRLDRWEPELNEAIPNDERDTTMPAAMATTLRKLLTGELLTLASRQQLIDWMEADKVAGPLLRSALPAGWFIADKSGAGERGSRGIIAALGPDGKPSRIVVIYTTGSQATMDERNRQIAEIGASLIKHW

The experiment addresses Beta-lactamase (Pseudomonas aeruginosa, UniProt Q932Y6).

As usually defined, the IC50 is the concentration that inhibits the measured activity by half. As for `O=c1c(Cl)c(Cl)cnn1Cc1nnc(-c2ccccc2Br)o1`, the concentration for half-maximal inhibition (IC50) is over 49.8 µM.

For the origin of these results see BindingDB's records for doi:10.7270/Q2XS5T0R (The Scripps Research Institute Molecular Screening Center, 2012).
